# According to PubChem BioAssay (Tox21):
# Protein sequences, listed by entry. Tags and fused reporters are not part of them. Lines headed by an entry give the natural chain unless they say otherwise; changes in a name come on top.
# UniProt Q12809: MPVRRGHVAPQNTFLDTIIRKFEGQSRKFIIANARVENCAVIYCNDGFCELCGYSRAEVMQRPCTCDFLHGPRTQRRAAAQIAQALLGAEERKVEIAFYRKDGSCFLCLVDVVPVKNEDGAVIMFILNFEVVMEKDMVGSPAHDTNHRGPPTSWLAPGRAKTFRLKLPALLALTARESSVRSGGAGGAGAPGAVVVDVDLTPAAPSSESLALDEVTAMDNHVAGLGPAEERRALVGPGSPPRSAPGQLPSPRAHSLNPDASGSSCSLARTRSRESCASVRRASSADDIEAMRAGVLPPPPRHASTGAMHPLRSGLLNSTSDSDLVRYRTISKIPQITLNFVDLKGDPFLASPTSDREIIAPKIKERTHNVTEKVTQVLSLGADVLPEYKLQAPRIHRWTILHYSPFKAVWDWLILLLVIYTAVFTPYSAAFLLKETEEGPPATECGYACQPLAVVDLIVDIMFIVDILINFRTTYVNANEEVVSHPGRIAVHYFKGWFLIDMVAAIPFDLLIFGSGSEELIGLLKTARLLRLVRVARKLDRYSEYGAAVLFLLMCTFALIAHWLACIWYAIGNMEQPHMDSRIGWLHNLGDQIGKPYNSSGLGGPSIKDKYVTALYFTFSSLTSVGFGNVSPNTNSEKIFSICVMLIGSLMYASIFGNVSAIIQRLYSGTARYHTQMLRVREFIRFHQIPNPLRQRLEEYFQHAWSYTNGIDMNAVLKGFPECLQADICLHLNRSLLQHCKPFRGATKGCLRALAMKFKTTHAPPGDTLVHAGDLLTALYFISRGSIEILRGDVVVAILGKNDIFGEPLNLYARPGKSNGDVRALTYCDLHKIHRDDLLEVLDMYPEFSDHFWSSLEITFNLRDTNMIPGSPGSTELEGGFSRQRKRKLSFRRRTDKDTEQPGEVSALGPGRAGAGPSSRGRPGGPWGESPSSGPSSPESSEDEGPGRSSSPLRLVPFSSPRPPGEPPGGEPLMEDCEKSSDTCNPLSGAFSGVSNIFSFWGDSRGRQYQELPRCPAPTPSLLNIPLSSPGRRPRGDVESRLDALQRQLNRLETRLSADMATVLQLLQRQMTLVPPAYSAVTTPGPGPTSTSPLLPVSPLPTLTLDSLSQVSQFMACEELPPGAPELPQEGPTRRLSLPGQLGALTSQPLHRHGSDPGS
# UniProt P33261, whole entry, looked up: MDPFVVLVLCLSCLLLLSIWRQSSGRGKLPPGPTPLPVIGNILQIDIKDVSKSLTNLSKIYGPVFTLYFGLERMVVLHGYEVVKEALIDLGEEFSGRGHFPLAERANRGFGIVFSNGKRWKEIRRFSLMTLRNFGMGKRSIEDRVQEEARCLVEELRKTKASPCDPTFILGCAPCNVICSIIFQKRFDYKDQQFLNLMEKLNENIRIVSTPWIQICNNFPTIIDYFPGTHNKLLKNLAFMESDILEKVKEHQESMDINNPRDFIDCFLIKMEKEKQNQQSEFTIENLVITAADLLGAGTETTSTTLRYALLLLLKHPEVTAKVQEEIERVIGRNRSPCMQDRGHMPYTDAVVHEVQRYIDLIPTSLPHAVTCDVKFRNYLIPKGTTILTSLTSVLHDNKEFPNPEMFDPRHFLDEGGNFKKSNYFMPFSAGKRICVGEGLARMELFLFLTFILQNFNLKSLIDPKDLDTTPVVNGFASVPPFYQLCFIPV
# UniProt P05177, whole entry, looked up: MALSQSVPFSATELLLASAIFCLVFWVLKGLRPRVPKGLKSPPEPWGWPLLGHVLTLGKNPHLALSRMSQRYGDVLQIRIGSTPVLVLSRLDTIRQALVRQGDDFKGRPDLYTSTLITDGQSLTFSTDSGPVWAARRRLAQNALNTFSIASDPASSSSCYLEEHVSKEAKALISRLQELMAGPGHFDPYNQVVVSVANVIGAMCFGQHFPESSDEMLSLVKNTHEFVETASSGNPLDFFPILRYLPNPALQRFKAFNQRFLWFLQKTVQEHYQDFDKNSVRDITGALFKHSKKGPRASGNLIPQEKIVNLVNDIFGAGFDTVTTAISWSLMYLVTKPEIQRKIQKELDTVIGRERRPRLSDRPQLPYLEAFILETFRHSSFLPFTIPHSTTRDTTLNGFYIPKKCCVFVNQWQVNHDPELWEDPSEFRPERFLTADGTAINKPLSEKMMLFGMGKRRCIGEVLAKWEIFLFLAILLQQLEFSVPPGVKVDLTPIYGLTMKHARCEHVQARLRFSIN
# UniProt P08684, whole entry, looked up: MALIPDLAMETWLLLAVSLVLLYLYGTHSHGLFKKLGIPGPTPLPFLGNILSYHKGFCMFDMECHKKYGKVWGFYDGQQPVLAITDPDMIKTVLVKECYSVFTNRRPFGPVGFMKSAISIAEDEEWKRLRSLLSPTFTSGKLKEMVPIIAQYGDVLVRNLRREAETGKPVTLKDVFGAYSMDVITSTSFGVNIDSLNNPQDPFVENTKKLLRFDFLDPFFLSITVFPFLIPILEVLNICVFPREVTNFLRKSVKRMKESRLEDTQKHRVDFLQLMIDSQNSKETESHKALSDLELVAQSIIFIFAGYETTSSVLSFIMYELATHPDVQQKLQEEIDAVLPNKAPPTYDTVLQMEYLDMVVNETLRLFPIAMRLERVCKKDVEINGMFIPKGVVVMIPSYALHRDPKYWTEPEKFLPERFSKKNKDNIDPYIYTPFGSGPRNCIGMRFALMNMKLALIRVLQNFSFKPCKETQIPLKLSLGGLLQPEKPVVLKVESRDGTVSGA
# Only a part is listed here, and it is no random draw. Results filed as inconclusive are left out. A call without a number means that no potency is given here. Some structures have more than one record in an assay (separate samples or runs), and their calls can disagree. Activity calls are given as the source filed them. Calls come from the whole dose curve; as a rule, active = well fitted curve in the direction sought with a large enough effect in the repeat runs; inconclusive = weak or mixed curves; inactive = no such curve, though single readings can be large; an effect the other way counts as inactive or inconclusive.
# Experiments:
# [1] = target: Voltage-gated inwardly rectifying potassium channel KCNH2 (Homo sapiens) (UniProt Q12809); experiment: Human Ether-a-go-go-Related Gene (hERG) channel small molecule antagonists: fluorescence cell-based qHTS assay (AID 1671200); note: nearly all actives have a fitted effect of over 50% in size;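 for activity change, negative = inhibition: hERG-expressing U2OS cells given a thallium stimulus after FluxOR II dye loading; series mostly up to about 77 µM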
# How it was run: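 Quantitative HTS in hERG-U2OS cells: thallium entry through the channel reports activity, read as continuous 480/540 nm fluorescence over 2 min after stimulus addition.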
# [2] = target: Cytochrome P450 2C19 (Homo sapiens) (UniProt P33261); experiment: Cytochrome P450 Family 2 Subfamily C Member 19 (CYP2C19) small molecule antagonists: luciferase reporter qHTS assay (AID 1671197); note: nearly all actives have a fitted effect of over 65% in size; for activity change, negative = inhibition: series mostly up to about 120 µM
# How it was run: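 Enzyme-substrate mix with proluciferin substrate (P450-Glo CYP2C19 system) preincubated with compounds 10 min at room temperature; NADPH regeneration solution added, 37C for 1 h; detection reagent stops reaction, luminescence read after 20 min. Ketoconazole positive control.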
# [3] = target: Cytochrome P450 1A2 (Homo sapiens) (UniProt P05177); experiment: Cytochrome P450 Family 1 Subfamily A Member 2 (CYP1A2) small molecule antagonists: luciferase reporter qHTS assay (AID 1671199); note: nearly all actives have a fitted effect of over 50% in size; for activity change, negative = inhibition: series mostly up to about 120 µM
# [4] = target: Cytochrome P450 3A4 (Homo sapiens) (UniProt P08684); experiment: Cytochrome P450 Family 3 Subfamily A Member 4 (CYP3A4) small molecule antagonists: luciferase reporter qHTS assay (AID 1671201); note: nearly all actives have a fitted effect of over 50% in size; for activity change, negative = inhibition: series mostly up to about 120 µM
# How it was run: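 Inhibition of CYP3A4 is measured as loss of light: the enzyme converts a proluciferin substrate to luciferin, detected luminescently. Reaction ran 1 h at room temperature with NADPH regeneration after a 10 min compound preincubation.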
# Potency is the fitted concentration of half-maximal effect.
compound,measurement,setting,value
NC(=O)Nc1ccc([As](=O)(O)O)cc1,Potency,[1],inactive
CCCCC(CC)CO[P+](=O)OCC(CC)CCCC (stereo unspecified),Potency,[2],active: 56.4 µM
same,Potency,[3],inactive
same,Potency,[1],inactive
same,Potency,[4],inactive
O=P(Cl)(Cl)c1ccccc1,Potency,[2],inactive
same,Potency,[3],inactive
same,Potency,[1],inactive
same,Potency,[4],inactive
Cc1cc([N+](=O)[O-])cc([N+](=O)[O-])c1O,Potency,[2],active: 71 µM and inactive
same,Potency,[3],active: 58 µM
same,Potency,[1],inactive
same,Potency,[4],inactive
CN(C(=O)Cc1cccc2occc12)[C@H]1CC[C@@]2(CCCO2)C[C@@H]1N1CCCC1,Potency,[1],inactive
same,Potency,[4],active: 22.3 µM
O=[p+]1oc2ccccc2c2ccccc21 (stereo unspecified),Potency,[3],inactive
same,Potency,[1],inactive
same,Potency,[4],inactive
CN(C(=O)Cc1ccc(Cl)c(Cl)c1)[C@H]1CC[C@@]2(CCCO2)C[C@@H]1N1CCCC1,Potency,[2],inactive
same,Potency,[3],inactive
same,Potency,[4],active: 0.776 µM
CCCCCCCCCCCCCC[P+](CCCCCC)(CCCCCC)CCCCCC,Potency,[2],active: 20 µM
same,Potency,[1],active: 0.615 µM
CCNC(C)Cc1ccc2c(c1)OCO2 (stereo unspecified),Potency,[1],inactive
same,Potency,[4],inactive
O=C(Cl)OCCOC(=O)Cl,Potency,[1],inactive
ClP(Cl)c1ccccc1,Potency,[3],inactive
same,Potency,[1],inactive
same,Potency,[4],inactive
CCCCOP(OCCCC)OCCCC,Potency,[2],active: 10 µM
same,Potency,[3],active: 35.6 µM
same,Potency,[1],inactive
COP(=S)(Cl)OC,Potency,[2],active: 28.5 µM
same,Potency,[1],inactive
same,Potency,[4],inactive
O=C(Cl)Oc1ccccc1,Potency,[3],inactive
same,Potency,[1],inactive
same,Potency,[4],inactive
O=[As]c1ccccc1 (stereo unspecified),Potency,[2],active: 79.6 µM
same,Potency,[4],inactive
O=[P+](Oc1ccccc1)Oc1ccccc1,Potency,[2],inactive
same,Potency,[3],inactive
same,Potency,[1],inactive
same,Potency,[4],inactive
O=P(Cl)(Oc1ccccc1)Oc1ccccc1,Potency,[2],active: 71 µM
same,Potency,[3],inactive
same,Potency,[1],inactive
same,Potency,[4],inactive
CCOP(=S)(CC)Sc1ccccc1 (stereo unspecified),Potency,[2],active: 1.26 µM
same,Potency,[4],active: 1.58 µM
CCOC(=O)Cl,Potency,[2],inactive
same,Potency,[3],inactive
same,Potency,[1],inactive
same,Potency,[4],inactive
CN(N=O)C(=N)N[N+](=O)[O-],Potency,[1],inactive
COC(=O)Cl,Potency,[2],inactive
same,Potency,[3],inactive
same,Potency,[1],inactive
same,Potency,[4],inactive
CCC(C)(OOC(C)(C)C)OOC(C)(C)C,"activity change, negative = inhibition",[2],inactive: -7.88% [at 23.6 µM]
same,"activity change, negative = inhibition",[3],inactive: -12.1% [at 23.6 µM]
same,"activity change, negative = inhibition",[1],inactive: 0.148% [at 15.8 µM]
same,"activity change, negative = inhibition",[4],inactive: -9.74% [at 23.6 µM]
O=[N+]([O-])c1ccc([N+](=O)[O-])cc1,Potency,[2],active: 5.03 µM
same,Potency,[1],inactive
same,Potency,[4],active: 25.2 µM
CCCCO[P+](=O)OCCCC,Potency,[2],inactive
same,Potency,[3],inactive
same,Potency,[1],inactive
same,Potency,[4],inactive
Cc1cc([N+](=O)[O-])c(O)c([N+](=O)[O-])c1,Potency,[2],inactive
same,Potency,[3],inactive
same,Potency,[1],inactive
same,Potency,[4],inactive
CC(C)CCCCCCCOP(OCCCCCCCC(C)C)Oc1ccccc1,Potency,[2],active: 79.6 µM
same,Potency,[1],inactive
same,Potency,[4],active: 17.8 µM
CN(C(=O)Cc1ccccc1)[C@H]1CC[C@@]2(CCCO2)C[C@@H]1N1CCCC1,Potency,[2],inactive
same,Potency,[3],inactive
same,Potency,[1],inactive
same,Potency,[4],active: 12.3 µM
